What was measured:
Assay in all cases: SPR (ProteOn XPR36), IgG amine-coupled, receptor in solution, 25 C
[1] = molecular target: hFcγ2B (human) (UniProt P31994)
[2] = molecular target: hFcγ1 (human) (UniProt P12314)
[3] = molecular target: mFcγ1 (UniProt P26151)
[4] = molecular target: hFcγ3A (human) (UniProt P08637)

Protein sequences, listed by entry. Tags and fused reporters are not part of them. Residues count along the entry.
UniProt P31994, 46-217: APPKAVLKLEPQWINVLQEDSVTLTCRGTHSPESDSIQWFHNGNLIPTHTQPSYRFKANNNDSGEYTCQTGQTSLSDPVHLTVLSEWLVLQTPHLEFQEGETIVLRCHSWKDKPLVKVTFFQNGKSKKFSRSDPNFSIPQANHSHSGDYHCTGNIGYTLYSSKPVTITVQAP
UniProt P12314, 16-288 limits assumed: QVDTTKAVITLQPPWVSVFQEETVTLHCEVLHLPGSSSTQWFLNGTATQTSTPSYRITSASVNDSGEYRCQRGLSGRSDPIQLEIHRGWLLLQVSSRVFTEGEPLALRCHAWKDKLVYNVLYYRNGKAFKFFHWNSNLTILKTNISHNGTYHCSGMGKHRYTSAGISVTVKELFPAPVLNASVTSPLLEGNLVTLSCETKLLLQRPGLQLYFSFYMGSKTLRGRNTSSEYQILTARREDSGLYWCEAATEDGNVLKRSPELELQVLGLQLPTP
UniProt P26151, 25-297: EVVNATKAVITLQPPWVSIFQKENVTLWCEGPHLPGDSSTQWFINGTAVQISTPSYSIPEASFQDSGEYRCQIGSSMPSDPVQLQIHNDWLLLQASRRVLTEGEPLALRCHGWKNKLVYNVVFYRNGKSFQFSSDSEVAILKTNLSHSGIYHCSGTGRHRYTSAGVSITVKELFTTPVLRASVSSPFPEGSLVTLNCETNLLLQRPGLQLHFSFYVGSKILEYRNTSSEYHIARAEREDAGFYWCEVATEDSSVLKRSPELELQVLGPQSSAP
UniProt P08637, 17-208 limits assumed: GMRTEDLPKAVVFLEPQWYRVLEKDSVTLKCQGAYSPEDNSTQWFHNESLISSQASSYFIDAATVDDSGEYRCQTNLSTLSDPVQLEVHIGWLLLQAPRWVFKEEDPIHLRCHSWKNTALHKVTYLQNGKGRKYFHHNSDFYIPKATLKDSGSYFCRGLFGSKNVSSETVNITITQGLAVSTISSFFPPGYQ

Kd [1] [nM] | Kd [2] [nM] | Kd [3] [nM] | Kd [4] [nM] | Substance
3000 | 0.2 | 120 | 272 | hIgG1 kappa (control) (antibody)
– | – | – | 1930 | hIgG2 kappa (control) (antibody)

Reference: US20130115208A1
